# Measured values published in paper PMC8637366 (Slas Discovery, 2021).
# Amino acid sequences for entries named in this document (tags omitted). Residues count along the entry.
# UniProt P22303, 32-614: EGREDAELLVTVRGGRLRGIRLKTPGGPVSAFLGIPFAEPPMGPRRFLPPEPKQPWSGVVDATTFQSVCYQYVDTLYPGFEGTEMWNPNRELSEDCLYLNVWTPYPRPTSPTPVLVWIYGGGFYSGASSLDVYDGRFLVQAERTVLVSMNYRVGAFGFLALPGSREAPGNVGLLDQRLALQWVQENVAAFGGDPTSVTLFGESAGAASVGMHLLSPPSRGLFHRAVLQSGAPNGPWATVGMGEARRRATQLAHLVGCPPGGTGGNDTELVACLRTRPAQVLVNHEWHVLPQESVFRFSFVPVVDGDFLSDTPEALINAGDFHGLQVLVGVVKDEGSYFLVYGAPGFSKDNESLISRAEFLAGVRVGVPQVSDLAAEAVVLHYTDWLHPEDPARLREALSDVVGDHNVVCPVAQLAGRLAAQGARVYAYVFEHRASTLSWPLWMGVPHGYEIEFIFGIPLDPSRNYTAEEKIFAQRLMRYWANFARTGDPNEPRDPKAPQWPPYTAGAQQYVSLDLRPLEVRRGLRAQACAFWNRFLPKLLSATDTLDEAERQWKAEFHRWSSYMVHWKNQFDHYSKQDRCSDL
# Molecular target: recombinant human AChE (Homo sapiens, UniProt P22303)
# Experiment: biochemical
smiles,measurement,value
CCCCCCCCCCC[C@@H](C[C@@H]1OC(=O)[C@H]1CCCCCC)OC(=O)[C@H](CC(C)C)NC=O [Orlistat],IC50,1010 nM
